Earlier results, collected in US12582646B2, “Method for treating drug or alcohol dependency” (AETHER THERAPEUTICS INC., priority 2019, dated 2026).

Amino acid sequences for entries named in this document (tags omitted).
UniProt P35372, whole entry, species assumed: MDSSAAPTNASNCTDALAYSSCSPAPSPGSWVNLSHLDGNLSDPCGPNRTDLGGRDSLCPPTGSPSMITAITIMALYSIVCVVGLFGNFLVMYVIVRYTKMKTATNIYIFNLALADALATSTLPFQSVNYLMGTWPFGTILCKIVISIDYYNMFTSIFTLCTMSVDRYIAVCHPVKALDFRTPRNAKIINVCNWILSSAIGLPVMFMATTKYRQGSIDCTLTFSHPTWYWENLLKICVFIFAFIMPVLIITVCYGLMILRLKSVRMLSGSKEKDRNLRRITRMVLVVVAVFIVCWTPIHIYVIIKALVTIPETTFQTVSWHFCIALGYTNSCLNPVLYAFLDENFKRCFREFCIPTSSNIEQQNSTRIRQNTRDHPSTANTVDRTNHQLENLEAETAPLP

Columns and labels:
mu opioid receptor = mu opioid receptor (Homo sapiens, UniProt P35372); conditions: cited from earlier work
mu opioid receptor (MOR) = mu opioid receptor (MOR) (Homo sapiens, UniProt P35372); conditions: in vitro; cited from earlier work

Compound: Oc1ccc2c3c1O[C@H]1[C@H](O)CC[C@@]4(O)[C@@H](C2)N(CC2CC2)CC[C@]314 [6alpha-naltrexol]
- type of opioid antagonism (mu opioid receptor): neutral antagonism

Compound: Oc1ccc2c3c1O[C@H]1[C@H](O)CC[C@@]4(O)[C@@H](C2)N(CC2CC2)CC[C@]314 [6beta-naltrexol]
- affinity to the mu opioid receptor (MOR) compared with naltrexone (mu opioid receptor (MOR)): slightly lower affinity
- type of opioid antagonism (mu opioid receptor): neutral opioid antagonist
